# Measurements published in PubChem BioAssay AID746 (The Scripps Research Institute Molecular Screening Center, 2007).
# The chains behind the UniProt entries cited, without tags or fusion partners. Where a name states a change or a piece, a line headed by the entry shows the natural chain unless it says otherwise.
# UniProt P53779: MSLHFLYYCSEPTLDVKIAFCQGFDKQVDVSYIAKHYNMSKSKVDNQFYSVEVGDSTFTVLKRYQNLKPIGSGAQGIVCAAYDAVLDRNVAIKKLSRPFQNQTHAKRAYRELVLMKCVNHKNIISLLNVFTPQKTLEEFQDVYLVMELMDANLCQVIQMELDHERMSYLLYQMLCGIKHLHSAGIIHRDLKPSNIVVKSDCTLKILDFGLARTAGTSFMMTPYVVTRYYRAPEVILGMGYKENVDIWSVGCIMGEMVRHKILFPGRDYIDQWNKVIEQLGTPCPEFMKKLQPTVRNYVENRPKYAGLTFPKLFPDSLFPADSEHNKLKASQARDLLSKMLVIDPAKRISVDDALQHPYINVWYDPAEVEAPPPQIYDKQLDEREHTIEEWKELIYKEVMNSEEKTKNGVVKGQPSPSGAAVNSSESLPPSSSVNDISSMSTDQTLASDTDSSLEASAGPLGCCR
# The entries are a selection whose mix differs from that of the whole data set. Activity calls are given as the source filed them. No stated cut-off is given here; in the data, active means inhibition above about 17%; inactive means the rest.
# Target: Mitogen-activated protein kinase 10 (Homo sapiens) (UniProt P53779)
# Experiment: inhibition of human JNK3 enzyme – biochemical, purified enzyme, primary screen (AID 746);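 further: 0% = DMSO and 100% = reference inhibitor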
# Conditions: purified JNK3 kinase activity, HTS; at 8 µM; hits give high values
row,SMILES,inhibition
1,Cc1cccc(OCC(=O)OC2CN3CCC2CC3)c1 (centres undefined),inactive: -2.83%
2,CCOP1(=S)c2c(C)nn(CCC#N)c2N=C(c2ccc(F)cc2)N1C (centres undefined),inactive: -4.12%
3,CCOP1(=S)c2c(C)nn(CCC#N)c2N=C(c2ccccc2F)N1C (centres undefined),inactive: -5.81%
4,O=P(Nc1nccs1)(c1ccccc1)c1nc2ccccc2s1 (centres undefined),inactive: 2.23%
5,O=P1(Nc2ncccn2)COc2ccccc2OC1,inactive: -7.25%
6,O=P1(Nc2ccc(Br)cn2)COc2ccccc2OC1,inactive: 1.9%
7,Cc1ccc(OCC(=O)OC2CN3CCC2CC3)cc1 (centres undefined),inactive: -5.46%
8,Cc1nn(-c2ccccc2)c2c1P(=O)(N1CCOCC1)N(C)C(c1ccccc1)=N2 (centres undefined),inactive: 3.91%
9,O=P1(Nc2ccccn2)COc2ccccc2OC1,inactive: 3.93%
10,Clc1n[nH]nc1-c1nn[nH][15n]1,inactive: -7.18%
11,COP1(=S)c2c(C)nn(CCC#N)c2N=C(c2ccc(F)cc2)N1C (centres undefined),inactive: -1.05%
12,O=C(COc1ccccc1)OC1CN2CCC1CC2 (centres undefined),inactive: -4.44%
13,O=C(OC1CN2CCC1CC2)C12CC3CC(CC(C3)C1)C2 (centres undefined),inactive: -4.33%
14,Cc1c2non([O-])c-2c(C)[n+](=O)[n+]1[O-],inactive: 2.28%
15,CCc1nc2c(n1)c1c(non1O)c1c2no[n+]1[O-],inactive: -2.71%
16,O=P(Nc1nccs1)(c1ccccc1)c1ccccc1,inactive: 5.75%
17,c1nnnn1CCn1cnnn1,inactive: 3.73%
18,O=C(OC1CN2CCC1CC2)c1cccc(Cl)c1 (centres undefined),inactive: -4.93%
19,O=P1(Nc2nc3ccc(Cl)cc3s2)COc2ccccc2O1 (centres undefined),inactive: 9.71%
